Measured values: patent US20160024487

How the values were obtained:
[1] = tested on: Lys(Dnp)-ATNATADPRIVGG-Lys(Abz)
[2] = tested on: Lys(Dnp)-ATNATAFPRIVGG-Lys(Abz)
[3] = tested on: Lys(Dnp)-ATNATAIPRIVGG-Lys(Abz)
[4] = tested on: Lys(Dnp)-ATNATAWPRIVGG-Lys(Abz)
[5] = tested on: Lys(Dnp)-ATNATDWPRIVGG-Lys(Abz)
[6] = tested on: Lys(Dnp)-ATNATFEPRIVGG-Lys(Abz)
[7] = tested on: Lys(Dnp)-ATNATFRPRIVGG-Lys(Abz)
[8] = tested on: Lys(Dnp)-ATNATFSPRIVGG-Lys(Abz)
[9] = tested on: Lys(Dnp)-ATNATFYPRIVGG-Lys(Abz)
[10] = tested on: Lys(Dnp)-ATNATGPPRIVGG-Lys(Abz)
[11] = tested on: Lys(Dnp)-ATNATGQPRIVGG-Lys(Abz)
[12] = tested on: Lys(Dnp)-ATNATHAPRIVGG-Lys(Abz)
[13] = tested on: Lys(Dnp)-ATNATHQPRIVGG-Lys(Abz)
[14] = tested on: Lys(Dnp)-ATNATITPRIVGG-Lys(Abz)
[15] = tested on: Lys(Dnp)-ATNATLLPRIVGG-Lys(Abz)
[16] = tested on: Lys(Dnp)-ATNATLNPRIVGG-Lys(Abz)
[17] = tested on: Lys(Dnp)-ATNATNDPRIVGG-Lys(Abz)
[18] = tested on: Lys(Dnp)-ATNATPHPRIVGG-Lys(Abz)
[19] = tested on: Lys(Dnp)-ATNATPKPRIVGG-Lys(Abz)
[20] = tested on: Lys(Dnp)-ATNATPRPRIVGG-Lys(Abz)
[21] = tested on: Lys(Dnp)-ATNATQKPRIVGG-Lys(Abz)
[22] = tested on: Lys(Dnp)-ATNATTGPRIVGG-Lys(Abz)
[23] = tested on: Lys(Dnp)-ATNATTYPRIVGG-Lys(Abz)
[24] = tested on: Lys(Dnp)-ATNATVNPRIVGG-Lys(Abz)
[25] = tested on: Lys(Dnp)-ATNATVQPRIVGG-Lys(Abz)
[26] = tested on: Lys(Dnp)-ATNATWAPRIVGG-Lys(Abz)
[27] = tested on: Lys(Dnp)-ATNATWGPRIVGG-Lys(Abz)
[28] = tested on: Lys(Dnp)-ATNATWWPRIVGG-Lys(Abz)
[29] = tested on: Lys(Dnp)-ATNATX4X3PRIVGG-Lys(Abz), X4 = E, X3 = T
[30] = tested on: Lys(Dnp)-ATNATX4X3PRIVGG-Lys(Abz), X4 = H, X3 = F
[31] = tested on: Lys(Dnp)-ATNATX4X3PRIVGG-Lys(Abz), X4 = M, X3 = E
[32] = tested on: Lys(Dnp)-ATNATX4X3PRIVGG-Lys(Abz), X4 = N, X3 = K
[33] = tested on: Lys(Dnp)-ATNATX4X3PRIVGG-Lys(Abz), X4 = S, X3 = D
[34] = tested on: Lys(Dnp)-ATNATX4X3PRIVGG-Lys(Abz), X4 = S, X3 = M
[35] = tested on: Lys(Dnp)-ATNATX4X3PRIVGG-Lys(Abz), X4 = S, X3 = V
[36] = tested on: Lys(Dnp)-ATNATX4X3PRIVGG-Lys(Abz), X4 = T, X3 = A
[37] = tested on: Lys(Dnp)-ATNATYEPRIVGG-Lys(Abz)
[38] = tested on: Lys(Dnp)-ATNATYHPRIVGG-Lys(Abz)
[39] = tested on: Lys(Dnp)-DFLAEGGGPRIVGG-Lys(Abz)
[40] = tested on: Lys(Dnp)-SEYQTFFNPRIVGG-Lys(Abz)

In the case of Human plasma purified α-thrombin, the FIIa kcat/KM [1] is reported as 2100 M⁻¹ s⁻¹, the Specificity Ratio (FIIa/FXa) [1] is reported as 37 and the kcat/KM [1] is reported as 2100 M⁻¹ s⁻¹. For the same substance, the FIIa kcat/KM [2] was 5900 M⁻¹ s⁻¹, the Functional Selectivity (Specificity*FIIa kcat/KM) [2] was 1.6e+06 and the kcat/KM [2] was 5900 M⁻¹ s⁻¹. For the same substance, the FIIa kcat/KM [3] was 12000 M⁻¹ s⁻¹, the Functional Selectivity (Specificity*FIIa kcat/KM) [3] was 660000 and the kcat/KM [3] was 12000 M⁻¹ s⁻¹. It also gave an FIIa kcat/KM [4] of 15000 M⁻¹ s⁻¹, a Specificity Ratio (FIIa/FXa) [4] of 32 and a kcat/KM [4] of 15000 M⁻¹ s⁻¹. It also gave an FIIa kcat/KM [5] of 14 M⁻¹ s⁻¹, a Functional Selectivity (Specificity*FIIa kcat/KM) [5] of 28 and a Specificity Ratio (FIIa/FXa) [5] of 2. For the same substance, the kcat/KM [5] was 14 M⁻¹ s⁻¹, the FIIa kcat/KM [6] was 5600 M⁻¹ s⁻¹ and the Specificity Ratio (FIIa/FXa) [6] was 40. For the same substance, the kcat/KM [6] was 5600 M⁻¹ s⁻¹, the FIIa kcat/KM [7] was 43000 M⁻¹ s⁻¹ and the Functional Selectivity (Specificity*FIIa kcat/KM) [7] was 4.4e+06. It also gave a kcat/KM [7] of 43000 M⁻¹ s⁻¹, an FIIa kcat/KM [8] of 9900 M⁻¹ s⁻¹ and a Specificity Ratio (FIIa/FXa) [8] of 51. The kcat/KM [8] was 9900 M⁻¹ s⁻¹, the FIIa kcat/KM [9] was 12000 M⁻¹ s⁻¹ and the Functional Selectivity (Specificity*FIIa kcat/KM) [9] was 1.9e+06. For the same substance, the kcat/KM [9] was 12000 M⁻¹ s⁻¹, the kcat/KM [10] was 430 M⁻¹ s⁻¹ and the kcat/KM [11] was 1400 M⁻¹ s⁻¹. The kcat/KM [12] was 960 M⁻¹ s⁻¹, the kcat/KM [13] was 1800 M⁻¹ s⁻¹ and the FIIa kcat/KM [14] was 32000 M⁻¹ s⁻¹. The Functional Selectivity (Specificity*FIIa kcat/KM) [14] was 1.2e+06, the kcat/KM [14] was 32000 M⁻¹ s⁻¹ and the FIIa kcat/KM [15] was 16000 M⁻¹ s⁻¹. For the same substance, the Specificity Ratio (FIIa/FXa) [15] was 27, the kcat/KM [15] was 16000 M⁻¹ s⁻¹ and the FIIa kcat/KM [16] was 14000 M⁻¹ s⁻¹. The Specificity Ratio (FIIa/FXa) [16] was 14, the kcat/KM [16] was 14000 M⁻¹ s⁻¹ and the FIIa kcat/KM [17] was 3 M⁻¹ s⁻¹. It also gave a Functional Selectivity (Specificity*FIIa kcat/KM) [17] of 0.3, a Specificity Ratio (FIIa/FXa) [17] of 0 and an FIIa kcat/KM [18] of 15000 M⁻¹ s⁻¹. It also gave a Specificity Ratio (FIIa/FXa) [18] of 41, a kcat/KM [18] of 15000 M⁻¹ s⁻¹ and an FIIa kcat/KM [19] of 9400 M⁻¹ s⁻¹. For the same substance, the Functional Selectivity (Specificity*FIIa kcat/KM) [19] was 1.2e+06, the kcat/KM [19] was 9400 M⁻¹ s⁻¹ and the FIIa kcat/KM [20] was 17000 M⁻¹ s⁻¹. For the same substance, the Specificity Ratio (FIIa/FXa) [20] was 34, the kcat/KM [20] was 17000 M⁻¹ s⁻¹ and the FIIa kcat/KM [21] was 5300 M⁻¹ s⁻¹. The Specificity Ratio (FIIa/FXa) [21] was 108, the kcat/KM [21] was 5300 M⁻¹ s⁻¹ and the kcat/KM [22] was 770 M⁻¹ s⁻¹. For the same substance, the FIIa kcat/KM [23] was 1400 M⁻¹ s⁻¹, the Specificity Ratio (FIIa/FXa) [23] was 60 and the kcat/KM [23] was 1400 M⁻¹ s⁻¹. It also gave an FIIa kcat/KM [24] of 5200 M⁻¹ s⁻¹, a Specificity Ratio (FIIa/FXa) [24] of 74 and a kcat/KM [24] of 5200 M⁻¹ s⁻¹. For the same substance, the FIIa kcat/KM [25] was 21000 M⁻¹ s⁻¹, the Functional Selectivity (Specificity*FIIa kcat/KM) [25] was 1.7e+06 and the kcat/KM [25] was 21000 M⁻¹ s⁻¹. The FIIa kcat/KM [26] was 13000 M⁻¹ s⁻¹, the Functional Selectivity (Specificity*FIIa kcat/KM) [26] was 4.2e+06 and the kcat/KM [26] was 13000 M⁻¹ s⁻¹. It also gave an FIIa kcat/KM [27] of 11000 M⁻¹ s⁻¹, a Functional Selectivity (Specificity*FIIa kcat/KM) [27] of 2.1e+06 and a kcat/KM [27] of 11000 M⁻¹ s⁻¹. For the same substance, the FIIa kcat/KM [28] was 3800 M⁻¹ s⁻¹, the Specificity Ratio (FIIa/FXa) [28] was 54 and the kcat/KM [28] was 3800 M⁻¹ s⁻¹. The FIIa kcat/KM [29] was 390 M⁻¹ s⁻¹, the Specificity Ratio (FIIa/FXa) [29] was 49 and the FIIa kcat/KM [30] was 1000 M⁻¹ s⁻¹. For the same substance, the Specificity Ratio (FIIa/FXa) [30] was 25, the FIIa kcat/KM [31] was 6800 M⁻¹ s⁻¹ and the Specificity Ratio (FIIa/FXa) [31] was 11. The FIIa kcat/KM [32] was 750 M⁻¹ s⁻¹, the Specificity Ratio (FIIa/FXa) [32] was 55 and the FIIa kcat/KM [33] was 740 M⁻¹ s⁻¹. The Specificity Ratio (FIIa/FXa) [33] was 72, the FIIa kcat/KM [34] was 960 M⁻¹ s⁻¹ and the Specificity Ratio (FIIa/FXa) [34] was 21. It also gave an FIIa kcat/KM [35] of 890 M⁻¹ s⁻¹, a Specificity Ratio (FIIa/FXa) [35] of 23 and an FIIa kcat/KM [36] of 630 M⁻¹ s⁻¹. The Specificity Ratio (FIIa/FXa) [36] was 32, the kcat/KM [37] was 1700 M⁻¹ s⁻¹ and the FIIa kcat/KM [38] was 4800 M⁻¹ s⁻¹. It also gave a Specificity Ratio (FIIa/FXa) [38] of 114, a kcat/KM [38] of 4800 M⁻¹ s⁻¹ and an FIIa kcat/KM [39] of 40000 M⁻¹ s⁻¹. It also gave a Functional Selectivity (Specificity*FIIa kcat/KM) [39] of 2.8e+08, a Specificity Ratio (FIIa/FXa) [39] of 6910 and an FIIa kcat/KM [40] of 20000 M⁻¹ s⁻¹. For the same substance, the Functional Selectivity (Specificity*FIIa kcat/KM) [40] was 2.8e+06 and the Specificity Ratio (FIIa/FXa) [40] was 141.
